The target of this assay is PDE10 (Homo sapiens (Human), UniProt Q9Y233). Nature of the assay: Phosphodiesterase (PDE) 10 assay with fluorescent substrate (IMAP, fluorescence polarization). In kind it is biochemical. As to conditions: labeled cAMP 30 nM. The source says:
a) Phosphodiesterase (PDE) 2A and 10 Assay with Fluorescent Substrate
The PDE reaction cleaves cAMP to AMP. The IMAP system (Molecular Device) using fluorescence polarization (FP) as detection principle was used to measure enzyme activity. A fluorescent labeled cAMP was used as substrate for the reaction, generating a labeled AMP. The fluorescent AMP binds specifically to the large M(III)-based nano-particles which reduces the rotational speed of the substrate and thus increases its polarization.
The inhibition of PDE 2A or 10 enzyme activity was assessed using IMAP-Phosphodiesterase-cAMP fluorescence labeled substrate (Molecular Devices, Order No. R7506), IMAP TR-FRET screening express (Molecular Devices, Order No. R8160, the TR-FRET component will not be used) and PDE 2A or PDE10 protein expressed upon baculovirus infection in SF9 cells. The cells were incubated after infection for ˜3 days and protein production was confirmed by Western Blot. […]
Compounds were serial diluted in DMSO. […] After at least 90 min of further incubation (room temperature, dark) the assay was measured at 485 nm excitation/525 nm emission in an Envision multilabel reader (PerkinElmer). […]
IC50 values are calculated with Assay Explorer or other suited software based on curve fitting of results of at least 8 different compound concentrations. […]
In general terms: Fluorescence polarisation rises when a labelled molecule tumbles more slowly, as on binding a larger partner.

Sequences of proteins named here, by UniProt entry; tags and fusion partners are left off. A change or cut given only in a name is not applied to a line headed by its entry.
UniProt Q9Y233: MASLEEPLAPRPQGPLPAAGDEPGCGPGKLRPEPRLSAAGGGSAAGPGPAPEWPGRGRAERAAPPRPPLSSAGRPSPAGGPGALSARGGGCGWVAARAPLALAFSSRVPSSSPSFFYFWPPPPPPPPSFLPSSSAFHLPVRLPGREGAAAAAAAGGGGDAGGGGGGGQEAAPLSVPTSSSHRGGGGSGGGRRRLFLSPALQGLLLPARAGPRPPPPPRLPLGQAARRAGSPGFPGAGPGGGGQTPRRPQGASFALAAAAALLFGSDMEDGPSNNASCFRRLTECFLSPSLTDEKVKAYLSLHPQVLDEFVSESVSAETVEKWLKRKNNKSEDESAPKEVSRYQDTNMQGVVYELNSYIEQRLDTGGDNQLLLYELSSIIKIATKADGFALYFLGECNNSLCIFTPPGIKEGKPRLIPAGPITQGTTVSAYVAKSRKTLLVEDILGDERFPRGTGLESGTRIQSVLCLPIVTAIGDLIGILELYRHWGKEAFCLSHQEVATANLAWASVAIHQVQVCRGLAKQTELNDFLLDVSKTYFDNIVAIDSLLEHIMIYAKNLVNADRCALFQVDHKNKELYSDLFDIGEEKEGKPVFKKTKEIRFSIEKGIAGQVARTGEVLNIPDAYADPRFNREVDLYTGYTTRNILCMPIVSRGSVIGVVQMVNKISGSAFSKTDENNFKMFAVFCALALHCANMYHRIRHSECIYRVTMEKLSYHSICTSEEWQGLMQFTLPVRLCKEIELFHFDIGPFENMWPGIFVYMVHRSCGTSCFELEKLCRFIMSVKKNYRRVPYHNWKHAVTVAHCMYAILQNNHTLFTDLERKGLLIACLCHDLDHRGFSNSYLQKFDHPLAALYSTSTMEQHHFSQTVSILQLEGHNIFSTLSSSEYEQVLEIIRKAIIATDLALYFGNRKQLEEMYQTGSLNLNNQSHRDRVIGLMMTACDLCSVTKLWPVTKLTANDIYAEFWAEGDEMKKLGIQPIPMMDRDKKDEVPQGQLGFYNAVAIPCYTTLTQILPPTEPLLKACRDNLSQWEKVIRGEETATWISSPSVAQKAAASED

SMILES strings stand for the structures.

For orientation: IC50 means the concentration at which inhibition is half-maximal.

Take `CC1(O)COCCC1(NC(=O)c1cnn2cc(C3CC3)cnc12)c1ccc(C(F)(F)F)cc1F` (stereo not shown) [Example 54]: the IC50 was 9.67 µM.

Values taken from patent publication US10023575B2, “Cyclic ether derivatives of pyrazolo[1,5-a]pyrimidine-3-carboxyamide” (Boehringer Ingelheim International GmbH, priority 2015, dated 2018).
